The term pKi denotes the negative decadic logarithm of the Ki, by convention in mol/L. Low values mean a high Ki, high ones a low Ki.

Amino acid sequences for entries named in this document (tags omitted).
UniProt P33535, whole entry, looked up: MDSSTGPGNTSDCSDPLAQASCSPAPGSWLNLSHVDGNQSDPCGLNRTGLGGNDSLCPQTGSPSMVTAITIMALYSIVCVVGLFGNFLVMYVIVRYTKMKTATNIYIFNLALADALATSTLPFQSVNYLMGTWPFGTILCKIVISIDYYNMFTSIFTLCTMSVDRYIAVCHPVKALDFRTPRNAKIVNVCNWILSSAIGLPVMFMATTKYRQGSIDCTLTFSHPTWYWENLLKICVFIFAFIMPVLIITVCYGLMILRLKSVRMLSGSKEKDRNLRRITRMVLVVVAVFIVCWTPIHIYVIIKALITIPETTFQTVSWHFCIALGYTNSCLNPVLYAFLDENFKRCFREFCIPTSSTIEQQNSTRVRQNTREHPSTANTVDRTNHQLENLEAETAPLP
UniProt P32300, whole entry, looked up: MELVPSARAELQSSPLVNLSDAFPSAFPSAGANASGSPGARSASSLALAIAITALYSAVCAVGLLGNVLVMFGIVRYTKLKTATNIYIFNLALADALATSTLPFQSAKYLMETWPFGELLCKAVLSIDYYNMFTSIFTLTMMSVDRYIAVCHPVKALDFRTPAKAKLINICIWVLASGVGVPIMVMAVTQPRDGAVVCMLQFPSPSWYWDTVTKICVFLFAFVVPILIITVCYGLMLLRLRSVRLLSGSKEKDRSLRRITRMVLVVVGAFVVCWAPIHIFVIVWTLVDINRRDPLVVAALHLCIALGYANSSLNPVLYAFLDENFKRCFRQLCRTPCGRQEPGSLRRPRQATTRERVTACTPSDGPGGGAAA

In test [1] the target is Mu-type opioid receptor (Rattus norvegicus, UniProt P33535). Kind of test: Displacement of [3H]diprenorphine from rat mu opioid receptor expressed in CHO cell membranes.
Test [2] concerns the target Delta-type opioid receptor (Mus musculus, UniProt P32300). The test can be described thus: Displacement of [3H]diprenorphine from FLAG-tagged mouse delta opioid receptor expressed in CHO cell membranes. A general note: Displacement assays read how much labelled ligand stays bound in the presence of the test substance.

pKi: −log10 of the molar value. Where only a bound is given, the exact number is not on record here.

For `COC(=O)[C@@H]1C[C@H](O)C(=O)[C@H]2[C@@]1(C)CC[C@H]1C(=O)O[C@H](c3ccoc3)C[C@]21C`, the pKi in test [1] and in test [2] was < 6.00 each time.

Source of the values: ChEMBL document CHEMBL3621128, “Synthesis and biological evaluation of 2-alkyl-2-methoxymethyl-salvinorin ethers as selective κ-opioid receptor agonists” (2015).
